This data set can be described thus: Solubility in DMSO observed during sample preparation. It is filed as physicochemical. As to the method:
First, 400 mg of sample was dissolved in 1 mL of DMSO to prepare 400 mg/mL sample solution. Then 0.5 mL of this 400 mg/mL sample solution was diluted 2-fold to prepare 200 mg/mL sample solution. In the same manner, sample solutions of 100 mg/mL, 50.0 mg/mL, and 25.0 mg/mL were prepared. In addition, 300 mg/mL sample solution was prepared. Thereafter, 0.2 mL of these sample solutions each was mixed with 19.8 mL of BHI (Brain Heart Infusion Agar, Becton Dickinson, MD) medium, thereby preparing agar plates having the sample concentration of 4.0 mg/mL, 3.0 mg/mL, 2.0 mg/mL, 1.0 mg/mL, 0.5 mg/mL, and 0.25 mg/mL in dishes. As a control for comparison of microbicidal activity of samples, agar plates containing catechin having the above-described concentrations were prepared. Sterilized water was used for dissolving catechin, because catechin was insoluble in DMSO.
First, 4 mg of 5,7,4′-trihydroxy-3′,5′-dimethoxyflavone sample was dissolved in 200 μL to prepare 20 mg/mL sample solution. To 100 μL of this 20 mg/mL sample solution, 100 μL of sterilized water was added to prepare 200 μL of 10 mg/mL sample solution. To the solution, 60 μL DMSO and 140 μL of sterilized water were added to prepare 400 μL of 5.0 mg/mL sample solution. DMSO was used in the concentration of 40%, because the sample precipitated from 30% DMSO. […]

For catechin [reference compound], the “solubility in DMSO” value was “insoluble”.

Values taken from US20100190846A1, “MICROBICIDAL AGENT AND MICROBICIDAL COMPOSITION” (priority 2006, published 2010).
